pEC50: −log10 of the molar value.
Target: human GPR119 (Homo sapiens, UniProt Q8TDV5)
Assay: Measurement of GPR119 signaling (cAMP assay; LANCE kit or HTRF) in HEK293 cells stably transfected with human GPR119
Conditions: read-out: GPR119 Human EC50; agonist-stimulated cAMP in HEK293 cells expressing human GPR119

By UniProt entry, the sequences of proteins in these tests, tags left out. Residues count along the entry.
UniProt Q8TDV5, 1-308 limits assumed: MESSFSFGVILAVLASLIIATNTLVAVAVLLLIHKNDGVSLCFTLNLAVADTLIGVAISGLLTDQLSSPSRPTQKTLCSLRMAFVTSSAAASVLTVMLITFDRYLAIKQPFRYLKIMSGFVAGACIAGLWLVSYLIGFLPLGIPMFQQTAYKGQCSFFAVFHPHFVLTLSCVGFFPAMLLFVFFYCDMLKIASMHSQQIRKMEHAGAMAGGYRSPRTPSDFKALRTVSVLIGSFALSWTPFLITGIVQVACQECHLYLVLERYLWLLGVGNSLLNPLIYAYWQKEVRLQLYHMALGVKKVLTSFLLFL

pEC50: 8.66
Structure (SMILES): CCc1cnc(N2CCC([C@H]3C[C@H]3COCc3ccc(-c4cncs4)cc3)CC2)nc1

Reference: patent publication US9006228B2 (Merck Sharp & Dohme Corp., priority 2011, dated 2015)
